# Patent US11771634B2, “Antimicrobial antifungal composition” (GODREJ INDUSTRIES LIMITED, priority 2021, dated 2023)
# System: zein (corn protein)
substance,measurement,value
Undecylenamidopropyl PG-Dimonium Chloride Phosphate & Sophorolipid (50:50 w/w ratio) [UDAP PB + Sophorolipid (50:50 w/w)],Zein Number (ZN),9.35 mg N/100 mL
